ERp5 block – inhibitors of ERp5-driven insulin aggregation, primary screen, biochemical, turbidity, absorbance 650 nm, single point | Protein disulfide-isomerase A6 (Homo sapiens), Q15084 | 90 min | inhibition, % at 9.99 µM | 0.05% of 350,000 active | AID 651711, 2012;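 active = mean replicate inhibition above about 25%, with every replicate also reaching it, limit read from the data, passing the limit was not always enough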
PDI inh – inhibitors of human PDI, primary screen, biochemical, turbidity, single point, plate reader. Protein disulfide-isomerase (Homo sapiens), P07237. inhibition, % at 10 µM. PDI insulin aggregation turbidity, A650, 90 min. 0.052% of 350,000 active. AID 588391, 2011;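 active = mean inhibition across replicates of 30% or more, whatever share of single replicates reach that level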
UUG fidelity – yeast start codon fidelity modulation | S. cerevisiae UUG-firefly luciferase reporter, luminescence/redox ratio | activity score, % at 18.7 µM | hit rate 0.13% among 350,000 | AID 602363;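 active means replicate mean at a twofold rise or more, about +100% in these data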;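 further: firefly luciferase made from a UUG start codon reports start codon fidelity; reporter light over untreated wells divided by growth signal over untreated wells; some hits fall short of that in this replicate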
FGF22 binding – binders of human FGF22 protein, primary screen, FGF22 synaptogenesis inhibitor project, biophysical, thermal shift, single point. Fibroblast growth factor 22 (Homo sapiens), Q9HCT0. 1.5% of 340,000 active. activity (Tm shift, normalised), % at 9.99 µM. recombinant FGF22 thermal shift, SYPRO orange fluorescence; percent of sucrose octasulfate shift, DMSO zero;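 active = mean Tm shift, scaled 0 neutral to 100 positive control, at about 1.3% or above, every replicate too, limit read from the data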
S100A4 MyoIIA – inhibitors of S100A4-myosin IIA peptide binding, primary screen, biochemical, fluorescence polarization, TAMRA-MyoIIA peptide; Protein S100-A4 (Homo sapiens), P26447; inhibition, % at 10.7 µM; 0.14% of 360,000 active;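 active = mean inhibition of at least 70% across replicates, with every replicate also reaching that level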
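assay system = human S100A4 monomer with TAMRA-labelled myosin IIA peptide | also added = labelled myosin peptide probe, 5 nM | incubation = 5 min between mix addition and reading | control set = DMSO and TFP controls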
SIRT5 inh – SIRT5 desuccinylase inhibitors, primary screen, biochemical, fluorescence imaging, single point, set 5; AID 652115, 2013; Purified SirT5, succinyl-peptide AMC, trypsin-coupled fluorescence; inhibition, % at 15 µM; 1.1% of 330,000 active; in the data active = inhibition above about 15%
An asterisk follows results filed as active; nt = no result given. Compounds with a hit are over-represented: about 2.2% of the library has one in this group of screens.

Protein sequences, listed by entry. Tags and fused reporters are not part of them.
Protein disulfide-isomerase A6 (Homo sapiens), Q15084, UniProt Q15084, whole entry, looked up: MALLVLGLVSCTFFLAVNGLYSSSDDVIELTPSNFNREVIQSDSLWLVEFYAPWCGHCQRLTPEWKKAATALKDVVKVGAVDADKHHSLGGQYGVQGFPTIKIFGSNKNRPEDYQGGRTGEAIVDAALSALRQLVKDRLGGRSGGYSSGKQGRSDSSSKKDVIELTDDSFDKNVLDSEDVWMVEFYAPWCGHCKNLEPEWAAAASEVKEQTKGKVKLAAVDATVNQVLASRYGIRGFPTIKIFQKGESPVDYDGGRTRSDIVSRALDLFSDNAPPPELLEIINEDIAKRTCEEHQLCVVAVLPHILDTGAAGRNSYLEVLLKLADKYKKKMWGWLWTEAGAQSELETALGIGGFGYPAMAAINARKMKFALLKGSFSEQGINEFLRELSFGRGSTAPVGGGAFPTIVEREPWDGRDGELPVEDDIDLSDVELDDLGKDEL

SMILES	ERp5 block	PDI inh	UUG fidelity	FGF22 binding	S100A4 MyoIIA	SIRT5 inh
O=C(CSc1nc(-c2ccccc2)nc2ccc(F)cc12)Nc1cccc(C(=O)O)c1	1	-1	nt	41	0	6
CCOC(=O)CSc1nc(-c2ccccc2)nc2ccc(C)cc12	3	11	nt	43*	-4	-5
COCC(=O)N(C)C[C@H]1Oc2cc(C#CC(C)(C)O)ccc2S(=O)(=O)N([C@@H](C)CO)C[C@H]1C	68*	nt	4	0	-4	-3
COCC(=O)N(C)C[C@H]1Oc2cc(C#CC(C)(C)O)ccc2S(=O)(=O)N([C@@H](C)CO)C[C@@H]1C	47*	nt	5	0	-2	-3
COCC(=O)N(C)C[C@@H]1Oc2cc(C#CC(C)(C)O)ccc2S(=O)(=O)N([C@H](C)CO)C[C@H]1C	-37	nt	1	0	-2	-3
Cc1noc(C)c1NC(=O)N(C)C[C@H]1Oc2ccc(NC(=O)Cc3cn(C)c4ccccc34)cc2C(=O)N([C@@H](C)CO)C[C@@H]1C	-1	nt	12	0	2	9
CCCC(=O)Nc1ccc2c(c1)C(=O)N(C)C[C@H](OC)[C@H](C)CN(C(C)=O)[C@@H](C)CO2	-3	nt	5	0	-4	5
C/C(=N/NS(=O)(=O)c1ccc(C)cc1)c1c(O)c2ccccc2oc1=O	3	-26	0	0	-1	28*
Cc1ccc(S(=O)(=O)Nc2c(O)c3ccccc3oc2=O)cc1	11	9	-16	0	-5	-5
CCOC(=O)C(=O)Cc1nc(OCc2ccccc2)cc(OCc2ccccc2)n1	3	-13	-15	43*	0	nt
CCOC(=O)C(Cc1nc(OCc2ccccc2)cc(OCc2ccccc2)n1)=NO	0	3	-1	0	17	2
Cc1cccc(NC(=O)CSc2nnc(-c3n[nH]c4ccccc34)o2)c1	9	-5	nt	1	1	16*
Cc1cccc(NC(=O)CSc2nnc(-c3ccccc3C)o2)c1	nt	1	-19	nt	nt	nt
N#Cc1cccc(NC(=O)CSc2nnc(-c3n[nH]c4ccccc34)o2)c1	-3	1	nt	1.9*	1	-1
CCCC(=O)N1CCC2(CC1)CN(C(=O)CC)[C@H](CO)c1c2c2ccc(OC)cc2n1C	-5	nt	nt	0	17	3
Cc1cc(C)cc(NC(=S)NCCSc2ccc(Cl)cc2)c1	5	6	nt	44*	-4	-2
C[C@H](CO)N1C[C@H](C)[C@H](CN(C)S(=O)(=O)c2cccc(F)c2)Oc2ncc(C#CC3CCCCC3)cc2C1=O	-1	nt	nt	-1	3	21*
C[C@H]1CN([C@@H](C)CO)C(=O)c2cc(C#CC3CCCCC3)cnc2O[C@@H]1CN(C)S(=O)(=O)c1cccc(F)c1	-3	nt	nt	0	-6	27*
O=C(O)C[C@@H]1C=C[C@@H](NC(=O)c2ccncc2)[C@H](CO)O1	-1	nt	-10	0	3	0
CN(C)c1cc(N/N=C\c2ccccc2)nc(N(C)C)n1	-1	0	nt	43*	1	-3

Given as a markdown table: 5 of the compounds above
| Molecule | ERp5 block | PDI inh | UUG fidelity | FGF22 binding | S100A4 MyoIIA | SIRT5 inh |
| --- | --- | --- | --- | --- | --- | --- |
| Cc1cccc(NC(=O)CSc2nnc(-c3n[nH]c4ccccc34)o2)c1 | 9 | -5 | nt | 1 | 1 | 16* |
| Cc1cccc(NC(=O)CSc2nnc(-c3ccccc3C)o2)c1 | nt | 1 | -19 | nt | nt | nt |
| N#Cc1cccc(NC(=O)CSc2nnc(-c3n[nH]c4ccccc34)o2)c1 | -3 | 1 | nt | 1.9* | 1 | -1 |
| CCCC(=O)N1CCC2(CC1)CN(C(=O)CC)[C@H](CO)c1c2c2ccc(OC)cc2n1C | -5 | nt | nt | 0 | 17 | 3 |
| Cc1cc(C)cc(NC(=S)NCCSc2ccc(Cl)cc2)c1 | 5 | 6 | nt | 44* | -4 | -2 |

Next section
SMILES	ERp5 block	PDI inh	UUG fidelity	FGF22 binding	S100A4 MyoIIA	SIRT5 inh
CCC(=O)N1CC2(C1)[C@H](c1ccc(-c3ccccc3OC)cc1)[C@H](CO)N2C(C)=O	4	nt	nt	0	-4	-3
O=C(Cc1ccc(F)cc1)Nc1nc(-c2ccc(F)c(F)c2)cs1	3	-25	-19	0	-4	16*
COc1ccc2c3c([nH]c2c1)[C@H](CO)N(Cc1cccc(F)c1)CC31CN(CC2CC2)C1	-8	nt	nt	0	-68	3
CO[C@@H]1CN(C)C(=O)c2cc(NS(=O)(=O)c3cccc(F)c3)ccc2OC[C@H](C)NC[C@H]1C	5	nt	nt	0	-2	-1
O=C(c1ccco1)N1CCN(Cc2cc(=O)c(OCc3ccccc3)co2)CC1	-2	-7	-3	0	-4	-1
O=C(c1ccco1)N1CCN(Cc2cc(=O)c(OCc3ccccc3F)co2)CC1	3	2	nt	66*	-2	-3
O=C(C[C@H]1CC[C@@H]2[C@H](COC[C@H](O)CN2C(=O)c2ccc(F)cc2)O1)Nc1ccc(-c2ccccc2)cc1	0	nt	nt	0	4	4
CN(C)S(=O)(=O)n1cc(/C=C(\NC(=O)c2ccccc2Cl)C(=O)NCCCn2ccnc2)c2ccccc21	4	-12	nt	0	23	19*
C[C@@H]1CN([C@@H](C)CO)C(=O)c2cccc(NC(=O)c3ccncc3)c2O[C@H]1CN(C)Cc1ccc(Cl)c(Cl)c1	-2	nt	5	0	9	-1
Cc1ccc2[nH]c(C(=O)NN=C3CCCCC3)c(-c3ccccc3)c2c1	2	-1	nt	43*	2	-1
Cc1ccc(S(=O)(=O)Nc2ccc3c(c2)C(=O)N([C@H](C)CO)C[C@@H](C)[C@H](CN(C)Cc2ccc(-c4ccccc4)cc2)O3)cc1	-10	nt	0	0	-4	18*
C[C@@H]1CN([C@H](C)CO)C(=O)c2cc(NS(=O)(=O)c3ccccc3)ccc2O[C@@H]1CN(C)Cc1ccc(Oc2ccccc2)cc1	4	nt	11	0	1	17*
C[C@@H]1CN([C@H](C)CO)C(=O)c2cc(NS(=O)(=O)c3ccccc3)ccc2O[C@H]1CN(C)Cc1ccc(-c2ccccc2)cc1	-4	nt	-2	0	-2	16*
C[C@@H]1CN([C@@H](C)CO)C(=O)c2cc(NS(=O)(=O)c3ccccc3)ccc2O[C@@H]1CN(C)CC1CCCCC1	2	nt	2	0	9	25*
C[C@@H]1CN([C@H](C)CO)C(=O)c2cc(NS(=O)(=O)c3ccccc3)ccc2O[C@H]1CN(C)Cc1ccc(Oc2ccccc2)cc1	-4	nt	0	0	12	10
CCOC(=O)C1=C[C@@H](c2ccccc2)N(S(=O)(=O)c2ccc(C)cc2)[C@H]1c1ccccc1Cl	-4	nt	-16	0	-2	23*
CCOC(=O)C1=C[C@@H](C)N(S(=O)(=O)c2ccc(C)cc2)[C@H]1c1ccccc1	-9	nt	2	0	-6	2
C[C@H]1CCCCO[C@@H](CN(C)Cc2ccc(C(=O)O)cc2)[C@@H](C)CN([C@@H](C)CO)C(=O)c2cc(NC(=O)Nc3ccc(C(F)(F)F)cc3)ccc2O1	5	nt	-5	0	27	-4
